Apparent affinities of Ab-14 variants for a coronavirus HR2 peptide

Antigen: PDVDLGDISGINAS, a 14-residue peptide of the SARS-CoV-2 spike HR2 region.

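These sequences belong to a second round, designed from the earlier measurements on random variants of the parent. Group labels follow the data file (Ctrl: baseline library sampled from a position-specific scoring matrix, with some repeated check sequences; Rand: our label for a block that the file lists under HC and that is probably the random mutants of the ten best first-round binders; En: ensemble of fine-tuned language models; GP: Gaussian process model; HC: hill climbing; Gen: genetic algorithm; Gibbs: Gibbs sampling; a sequence that several methods proposed may carry one label only). In AlphaSeq, yeast of one mating type display the scFv and yeast of the other type display the target. After mating in shaken culture at 30 °C for 16 h, diploids were selected and their barcode pairs sequenced. The ratio of observed to expected reads was calibrated, replicate by replicate, on BCL2-family standards whose Kd was known from biolayer interferometry. Each pool was mated in six replicate cultures.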

Each scFv is VH, the linker GGGGSGGGGSGGGGS, VL, as in the parent Ab-14, and differs from it in the CDRs of the light chain only.
VH: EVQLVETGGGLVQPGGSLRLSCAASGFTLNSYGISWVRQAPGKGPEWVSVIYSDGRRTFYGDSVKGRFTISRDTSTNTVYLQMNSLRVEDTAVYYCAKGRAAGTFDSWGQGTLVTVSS
VL: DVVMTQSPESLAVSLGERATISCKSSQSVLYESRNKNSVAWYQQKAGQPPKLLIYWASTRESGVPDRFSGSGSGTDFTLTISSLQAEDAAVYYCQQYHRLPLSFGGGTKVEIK

Sequences are complete VL domains. The read-out is the apparent dissociation constant on a log10 scale (nM): the lower, the stronger. The mean shown is taken over the replicates in which the pair was detected. An entry "no signal" has no value in the source: the pair was not observed among the diploids in any replicate. This suggests poor binding but is not conclusive.

| VL | group | mean log10 Kd (nM) | replicates with signal | empty controls |
|---|---|---|---|---|
| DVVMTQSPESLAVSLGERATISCKLYQSEWYESRMCNSVAWYQQKAGQPPKLLIYNASVREVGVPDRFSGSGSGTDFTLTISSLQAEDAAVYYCQQYHRLPLSFGGGTKVEIK | GP_Gibbs | 0.64 | 6/6 | 1/18 |
| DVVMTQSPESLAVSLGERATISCHMSDSIEKMASIARNIAWYQQKAGQPPKLLIYDETTTAMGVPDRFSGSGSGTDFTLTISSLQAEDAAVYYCQQYYRLPLSFGGGTKVEIK | En_Gibbs | 0.00 | 6/6 | 2/18 |
| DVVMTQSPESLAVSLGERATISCKMSQSMGYGERNKNSVAWYQQKAGQPPKLLIYNASQRMSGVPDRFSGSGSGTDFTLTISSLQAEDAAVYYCQQYHRLPLSFGGGTKVEIK | GP_Gibbs | -0.14 | 6/6 | 2/18 |
| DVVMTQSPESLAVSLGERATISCKMTTNLEHQASRKNSIAWYQQKAGQPPKLLIYEADMVAAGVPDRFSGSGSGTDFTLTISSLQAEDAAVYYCQQYMRLPLIFGGGTKVEIK | En_Gibbs | 0.08 | 6/6 | 0/18 |
| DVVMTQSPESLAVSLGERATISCQLYEMLYELSGKSHSVAWYQQKAGQPPKLLIYDNSTRGEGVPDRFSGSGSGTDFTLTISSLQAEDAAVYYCQQYFRLPLDFGGGTKVEIK | En_Gen | 1.87 | 3/6 | 0/18 |
| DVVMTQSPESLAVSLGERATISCKSSQSEHYESRNKNSVAWYQQKAGQPPKLLIYEASKRESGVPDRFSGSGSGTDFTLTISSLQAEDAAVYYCQQYADLPLSFGGGTKVEIK | Ctrl | -0.06 | 6/6 | 0/18 |
| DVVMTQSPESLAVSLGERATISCHSSPSVLYESRNKNSVAWYQQKAGQPPKLLIYNASTREMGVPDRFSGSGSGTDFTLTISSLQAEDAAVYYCQQYHRLPLQFGGGTKVEIK | GP_HC | 1.13 | 6/6 | 1/18 |
| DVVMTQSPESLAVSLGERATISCHLSDSVLDESRNKNSVAWYQQKAGQPPKLLIYNASTRESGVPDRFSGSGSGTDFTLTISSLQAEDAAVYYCQQYHRLPLNFGGGTKVEIK | GP_HC | 0.50 | 6/6 | 0/18 |
| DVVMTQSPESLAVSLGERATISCKDSQSLLYESRNKNSVAWYQQKAGQPPKLLIYWSSTPESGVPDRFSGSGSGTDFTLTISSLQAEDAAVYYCQQYHRLPLSFGGGTKVEIK | Ctrl | no signal | 0/6 | 0/18 |
| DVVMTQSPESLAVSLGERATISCKSSDSVYYESRNKNSVAWYQQKAGQPPKLLIYWASTRESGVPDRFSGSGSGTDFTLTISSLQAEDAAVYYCQQYHRLPLSFGGGTKVEIK | Ctrl | 2.65 | 6/6 | 1/18 |
| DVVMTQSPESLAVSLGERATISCKISQDYWYESRNKNSVAWYQQKAGQPPKLLIYQASTREVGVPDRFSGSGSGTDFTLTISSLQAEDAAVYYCQQYHRLPLSFGGGTKVEIK | GP_Gibbs | -0.27 | 6/6 | 3/18 |
| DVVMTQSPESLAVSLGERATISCKSFQSKLYESRNKNSVAWYQQKAGQPPKLLIYDASTRESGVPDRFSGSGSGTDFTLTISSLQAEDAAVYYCQQYHRLPLSFGGGTKVEIK | Ctrl | 0.24 | 6/6 | 3/18 |
| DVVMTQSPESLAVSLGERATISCFLGYQQDGNGLQRQAVAWYQQKAGQPPKLLIYNVNMKEYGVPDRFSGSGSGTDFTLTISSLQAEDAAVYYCQQYGRLPLMFGGGTKVEIK | En_Gibbs | 1.16 | 6/6 | 0/18 |
| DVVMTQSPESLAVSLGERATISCKVSQSVLDESRNGNNVAWYQQKAGQPPKLLIYWASTRESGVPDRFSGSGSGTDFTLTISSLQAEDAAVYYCQQYHRLPLSFGGGTKVEIK | Ctrl | 1.21 | 6/6 | 1/18 |
| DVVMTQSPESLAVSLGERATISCKLPQSELYESRNKNSVAWYQQKAGQPPKLLIYNASQRESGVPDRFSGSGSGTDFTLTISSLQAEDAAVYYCQQYHRLPLSFGGGTKVEIK | GP_Gen | 0.27 | 6/6 | 0/18 |
| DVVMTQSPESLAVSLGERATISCKSSQSDLYESRNKNSVAWYQQKAGQPPKLLIYWASTREEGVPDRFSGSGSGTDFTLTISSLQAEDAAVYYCQQYQRLPLSFGGGTKVEIK | Ctrl | 1.64 | 6/6 | 0/18 |
| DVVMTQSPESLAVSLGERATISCHSSPSVLYESRNKNSVAWYQQKAGQPPKLLIYNASTRESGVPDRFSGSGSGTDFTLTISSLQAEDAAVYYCQQYHRLPFSFGGGTKVEIK | Rand | -0.06 | 6/6 | 1/18 |
| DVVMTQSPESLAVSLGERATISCKIGGVTNGLSRSKNSVAWYQQKAGQPPKLLIYEQSTREDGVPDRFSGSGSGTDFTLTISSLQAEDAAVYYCQQYNRLPLSFGGGTKVEIK | En_HC | 0.13 | 6/6 | 0/18 |
| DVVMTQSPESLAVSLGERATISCKSPFSVYYGDRNKNSVAWYQQKAGQPPKLLIYQASTRESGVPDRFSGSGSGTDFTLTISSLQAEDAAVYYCQQYHRLPLSFGGGTKVEIK | GP_Gibbs | 0.87 | 6/6 | 1/18 |
| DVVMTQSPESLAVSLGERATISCKLQQSVLPESRNSNSVAWYQQKAGQPPKLLIYEASLRLSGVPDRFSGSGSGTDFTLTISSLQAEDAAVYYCQQYHRLPLSFGGGTKVEIK | GP_Gibbs | 0.11 | 6/6 | 0/18 |
| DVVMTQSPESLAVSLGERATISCKCSTSNLYESRNKNSVAWYQQKAGQPPKLLIYNASTRISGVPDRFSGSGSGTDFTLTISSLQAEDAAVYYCQQYHHLPLSFGGGTKVEIK | Ctrl | 0.33 | 6/6 | 1/18 |
| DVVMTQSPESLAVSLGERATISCKVSQSWLYESRNKNSVAWYQQKAGQPPKLLIYGASTRESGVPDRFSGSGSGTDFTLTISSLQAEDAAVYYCQQYHRLPLSFGGGTKVEIK | GP_Gen | 0.00 | 6/6 | 2/18 |

The authors averaged sequences with at least three values out of six and counted those with two or fewer as poor binders. A sequence measured in both rounds can read differently, since the two assays cover different ranges. As a blank, each scFv also met three strains without target: over all light chain designs, 4% of these pairings were detected, typically at 2.64 and seldom below 1.59. Also given: how often the same scFv was detected with the empty control strains.

Data: MIT Lincoln Laboratory AlphaSeq set, Li et al. 2023, doi:10.1038/s41467-023-39022-2, as distributed in FLAb.